Measured values reported in PMC3791940, “Compounds from Gum Ammoniacum with Acetylcholinesterase Inhibitory Activity” (Scientia Pharmaceutica, 2013).

The chains behind the UniProt entries cited, without tags or fusion partners. Residues count along the entry.
UniProt O42275, 24-633: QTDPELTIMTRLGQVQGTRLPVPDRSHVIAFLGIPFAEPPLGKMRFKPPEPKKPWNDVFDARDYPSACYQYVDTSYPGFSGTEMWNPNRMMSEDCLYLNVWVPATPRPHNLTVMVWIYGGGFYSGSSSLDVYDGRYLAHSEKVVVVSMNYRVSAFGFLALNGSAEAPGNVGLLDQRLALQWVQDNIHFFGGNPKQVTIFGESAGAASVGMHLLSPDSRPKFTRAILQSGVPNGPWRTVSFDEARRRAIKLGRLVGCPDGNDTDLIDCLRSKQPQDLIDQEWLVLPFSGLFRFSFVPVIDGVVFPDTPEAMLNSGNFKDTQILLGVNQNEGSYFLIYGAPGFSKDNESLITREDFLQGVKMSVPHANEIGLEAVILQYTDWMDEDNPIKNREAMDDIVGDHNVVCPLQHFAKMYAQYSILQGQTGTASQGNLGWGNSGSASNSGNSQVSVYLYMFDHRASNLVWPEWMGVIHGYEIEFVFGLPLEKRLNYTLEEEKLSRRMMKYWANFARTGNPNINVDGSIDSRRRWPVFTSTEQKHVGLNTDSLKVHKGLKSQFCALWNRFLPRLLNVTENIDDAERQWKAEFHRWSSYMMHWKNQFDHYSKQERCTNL

Biological target: T1, AChE from electric eel (Electrophorus electricus, UniProt O42275)
T1 construct: purchased Sigma (St. Louis, USA)
Assay: Quantitative colorimetric microplate assay based on Ellman's method for AChE inhibitory activity
Assay type: biochemical
Conditions: read-out: IC50, inhibition of AchE (converted)
Experimental: The tested concentrations of the samples ranged from 1.56 to 200 μg/mL. Based on the resulting curves, the IC50 values for AChE inhibition were calculated using the respective curves’ equations (Table 1).
Acetylthiocholine iodide (ATCI) and chelidonine were obtained from Fluka (Buchs, Switzerland). Fast Blue B salt (FBS) and silica gel 60 were from Merck (Darmstadt, Germany). The solvents MeOH, EtOAc, CH2Cl2, and CHCl3 were purchased from VWR (Vienna, Austria). Two different buffer systems were used (buffer A: 50 mM Tris-HCl, pH 7.9 containing 0.1% BSA; buffer B: 50 mM Tris-HCl, pH 7.9 containing 0.1 M NaCl and 0.02 M MgCl2·6H2O).
A quantitative colorimetric assay based on Ellman’s method was used to measure the AChE inhibitory activities of the substances. Briefly, in a 96-well plate, 25 μL of 15 mM ATCI, 125 μL of 3 mM DTNB in buffer B, 50 μL of buffer A, and 25 μL of the extract or the isolated substances (from 15.6 μg/mL to 2.0 mg/mL in 10% DMSO) were thoroughly mixed and the absorbance was read at 405 nm five times every 15 s. […] Then the absorbance was measured again eight times every 15 s. […] To compensate for any increase in absorbance due to the color of the extracts or spontaneous hydrolysis of the substrate, the absorbance before the addition of the enzyme was subtracted from the absorbance after adding the enzyme. […]

Compound: CNC(=O)Oc1ccc2c(c1)[C@]1(C)CCN(C)[C@@H]1N2C [Physostigmine, physostigmine, reference compound]
- IC50 (n=3, 25°C, 10 min incubation, tested 1.56 to 200 μg/mL): 2910 nM
- IC50 (n=3, same values given in molar unit): 2910 nM

Where two headings read alike, the source gives them in different places.
